Test results published in US12570675B2, “Boronic acid compounds” (LG CHEM, LTD., priority 2020, dated 2026).

By UniProt entry, the sequences of proteins in these tests, tags left out. Residues count along the entry.
UniProt P28074, 60-263 limits assumed: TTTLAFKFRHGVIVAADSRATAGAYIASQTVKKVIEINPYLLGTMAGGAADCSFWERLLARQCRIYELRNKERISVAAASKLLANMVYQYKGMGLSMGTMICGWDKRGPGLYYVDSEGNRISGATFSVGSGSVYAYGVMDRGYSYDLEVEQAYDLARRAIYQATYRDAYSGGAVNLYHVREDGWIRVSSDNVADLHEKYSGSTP

Biological target: Proteasome chymotrypsin-like activity (S26 protein from RPMI8226 cells) (Homo sapiens, UniProt P28074)
Format: biochemical
Conditions: S26 protein from RPMI8226 cell extract 2 ug/well, substrate 20 uM, 37° C., 90 minutes; read-out: Proteasome chymotrypsin-like activity inhibition IC50
Protocol: The abilities to inhibit the proteasome activity of the compounds described in the Examples of the present invention and boronic acid drugs were evaluated as follows.
RPMI8226 cells, which is a multiple myeloma cell line, were cultured and then separated by a centrifuge, and washed twice with phosphate buffered saline (PBS). 20 mM of a tris-HCl (pH 8.0) buffer solution was added to the washed cells, and the cells were disrupted by a homogenizer and centrifuged to obtain S26 protein from the supernatant. Suc-Leu-Leu-Val-Tyr-AMC, for a fluorogenic substrate for the chymotrypsin-like activity of the proteasome, and Z-Leu-Leu-Glu-AMC, for a fluorogenic substrate for the caspase-like activity, were purchased from Calbiochem, EMD Millipore and used. […] The fluorescence of the fluorogenic substrate was measured by FlexStation II Fluorometer (Molecular Devices). The fluorescence inhibited by the compound diluted at each concentration was measured as the relative percentage value for the amount obtained from the treatment only with the S26 protein and the fluorogenic substrate. […]

CC(C)C[C@H](NC(=O)CNC(=O)c1cc(Cl)ccc1Cl)B(O)O [ixazomib]
IC50: 4 nM
